According to patent US12570711B2, “Platforms for co-stimulation, novel car designs and other enhancements for adoptive cellular therapy” (Angeles Therapeutics, Inc., priority 2017, dated 2026):

T1: CD19-ECD-GGS-NLuc fusion protein (Homo sapiens, UniProt P15391)
T1 construct: made in house
T1 sequence (P15391 20-290): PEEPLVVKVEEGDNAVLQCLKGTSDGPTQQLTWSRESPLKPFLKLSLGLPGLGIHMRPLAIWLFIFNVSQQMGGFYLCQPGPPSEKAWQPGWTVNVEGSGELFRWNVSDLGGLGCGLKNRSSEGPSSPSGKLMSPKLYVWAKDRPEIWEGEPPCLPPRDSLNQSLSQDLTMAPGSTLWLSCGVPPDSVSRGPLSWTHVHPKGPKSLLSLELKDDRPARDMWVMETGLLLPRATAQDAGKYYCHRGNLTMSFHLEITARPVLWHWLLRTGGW

B1: EF1α-D-SacII promoter: EF1α promoter from which an internal SacII fragment was deleted (nucleic acid)
DNA: GTGAGGCTCCGGTGCCCGTCAGTGGGCAGAGCGCACATCGCCCACAGTCCCCGAGAAGTTGGGGGGAGGGGTCGGCAATTGAACCGGTGCCTAGAGAAGGTGGCGCGGGGTAAACTGGGAAAGTGATGTCGTGTACTGGCTCCGCCTTTTTCCCGAGGGTGGGGGAGAACCGTATATAAGTGCAGTAGTCGCCGTGAACGTTCTTTTTCGCAACGGGTTTGCCGCCAGAACACAGGTAAGTGCCGTGTGTGGTTCCCGCGGGCGGCGACGGGGCCCGTGCGTCCCAGCGCACATGTTCGGCGAGGCGGGGCCTGCGAGCGCGGCCACCGAGAATCGGACGGGGGTAGTCTCAAGCTGGCCGGCCTGCTCTGGTGCCTGGCCTCGCGCCGCCGTGTATCGCCCCGCCCTGGGCGGCAAGGCTGGCCCGGTCGGCACCAGTTGCGTGAGCGGAAAGATGGCCGCTTCCCGGCCCTGCTGCAGGGAGCTCAAAATGGAGGACGCGGCGCTCGGGAGAGCGGGCGGGTGAGTCACCCACACAAAGGAAAAGGGCCTTTCCGTCCTCAGCCGTCGCTTCATGTGACTCCACGGAGTACCGGGCGCCGTCCAGGCACCTCGATTAGTTCTCGACCTTTTGGAGTACGTCGTCTTTAGGTTGGGGGGAGGGGTTTTATGCGATGGAGTTTCCCCACACTGAGTGGGTGGAGACTGAAGTTAGGCCAGCTTGGCACTTGATGTAATTCTCCTTGGAATTTGCCCTTTTTGAGTTTGGATCTTGGTTCATTCTCAAGCCTCAGACAGTGGTTCAAAGTTTTTTTCTTCCATTTCAGGTGTCGTGA
B2: SEQ ID NO: 9668: SIR based CAR targeting CD20, lacking a hNEMO-K277A module (protein)
chain: MALPVTALLLPLALLLHAARPQIVLSQSPAILSASPGEKVTMTCRASSSVSYMHWYQQKPGSSPKPWIYATSNLASGVPARFSGSGSGTSYSFTISRVEAEDAATYYCQQWTFNPPTFGGGTRLEIKRTVAALEDLKNVFPPEVAVFEPSKAEIAHTQKATLVCLATGFYPDHVELSWWVNGKEVHSGVCTDPQPLKEQPALNDSRYCLSSRLRVSATFWQNPRNHFRCQVQFYGLSENDEWTQDRAKPVTQIVSAEAWGRADCGITSASYHQGVLSATILYEILLGKATLYAVLVSALVLMAMVKRKDSRGRAKRSGSGATNFSLLKQAGDVEENPGPTSMDWIWRILFLVGAATGAHSFEQAYLQQSGAELVRPGASVKMSCKASGYTFTSYNMHWVKQTPRQGLEWIGGIYPGNGDTSYNQKFKGKATLTVGKSSSTAYMQLSSLTSEDSAVYFCARYDYNYAMDYWGQGTSVTVSSASTRIQNPDPAVYQLRDSKSSDKSVCLFTDFDSQTNVSQSKDSDVYITDKCVLDMRSMDFKSNSAVAWSNKSDFACANAFNNSIIPEDTFFPSSDVPCDVKLVEKSFETDTNLNFQNLSVIGFRILLLKVAGFNLLMTLRLWSS
modifications: Synthetic Polynucleotide encoding a CAR with optional accessory module(s)

Assays:
[1] = target: T1, CD19-ECD-GGS-NLuc fusion protein; experiment: CAR surface expression on J-N-G cells by binding with CD19-ECD-GGS-NLuc fusion protein; type: cell-based; settings: compared to wild-type EF1α promoter
Text: Use of strong viral promoters in adoptive cellular therapy applications carries the risk of activation of downstream oncogenes and development of cancer. As such, human Elongation Factor 1α (EF1α) promoter is frequently used in adoptive cellular therapy applications as it provides strong expression and is human in origin. A limitation of EF1α promoter, however, is its relatively large size. Although a mini-EF1α promoter has been described, it is much weaker as compared to the EF1α promoter. To determine whether an internal deletion in the EF1α promoter would allow shortening of its length while preserving its promoter strength, a SacII fragment was deleted from the EF1α promoter. The nucleotide sequence of the resulting EF1α-D-SacII promoter is presented in SEQ ID NO: 3842. Lentiviral vectors encoding a CD19-directed FMC63-BBz CAR were constructed in the vectors with the wild-type EF1α promoter (SEQ ID NO: 3840) or EF1α-D-SacII promoter (SEQ ID NO: 3839). The vectors also co-expressed EGFP and blasticidin resistance gene via 2A linkers. Lentiviruses were generated in 293FT cells and used to infect J-N-G cells.

[2] = tested on: Mesothelin, IL13Ra2 and hematopoietic markers (CD19, CD20, CD22, BCMA); experiment: Effect of CAR combination on in vivo T cell expansion in patients with mesothelioma and glioblastomas; set-up: species or system human; settings: T cells that are defective in TCR chains; coexpressed CD20 CAR
Protocol: Patients with mesothelioma and glioblastomas are administered T cells infected with lentiviruses encoding the following combination of CARs targeting Mesothelin (expressed on mesotheloma), IL13Ra2 (expressed on Glioblastomas) and hematopoietic markers (CD19, CD20, CD22, BCMA). The T cells are either of the wild-type TCR chains or have the TCRα chain knocked out by CRISP/Cas9 approach. It is observed that coexpression in the same T cells with the wild-type TCR chains of a CAR targeting mesothelin with a CAR targeting CD19, CD20, CD22 or BCMA results in increased T cell expansion in vivo as compared to expression of Mesothelin alone.

Molecule	surface expression of the FMC63-BBz CAR [1]	in vivo T cell expansion [2]
B1	near equivalent expression of the FMC63-BBz CAR	–
B2	–	successfully induces T cells expansion
